Measurements reported in ChEMBL document CHEMBL1130150, “Conformationally restricted analogues of trimethoprim: 2,6-diamino-8-substituted purines as potential dihydrofolate reductase inhibitors from Pneumocystis carinii and Toxoplasma gondii” (J Med Chem, 1997).

Assays:
Dihydrofolate reductase [1] = biological target: T1, Dihydrofolate reductase (Pneumocystis carinii, UniProt P16184)
T1 sequence (P16184 whole entry): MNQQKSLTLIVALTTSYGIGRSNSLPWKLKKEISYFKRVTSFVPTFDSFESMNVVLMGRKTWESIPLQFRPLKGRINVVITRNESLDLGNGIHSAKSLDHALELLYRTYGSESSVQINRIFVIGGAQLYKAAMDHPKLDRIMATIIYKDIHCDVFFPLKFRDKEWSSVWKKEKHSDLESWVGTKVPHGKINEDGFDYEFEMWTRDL

Dihydrofolate reductase [2] = biological target: T2, Dihydrofolate reductase (Rattus norvegicus, UniProt Q920D2)
T2 sequence (Q920D2 whole entry): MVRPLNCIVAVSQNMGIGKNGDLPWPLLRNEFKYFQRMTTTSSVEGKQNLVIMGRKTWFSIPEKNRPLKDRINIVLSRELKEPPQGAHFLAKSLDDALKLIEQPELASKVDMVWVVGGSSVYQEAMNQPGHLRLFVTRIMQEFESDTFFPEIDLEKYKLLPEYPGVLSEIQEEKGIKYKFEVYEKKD

Row | IC50 (Dihydrofolate reductase [2]) [µM] | Compound | IC50 (Dihydrofolate reductase [1]) [µM]
1 | – | Nc1nc(N)c2nc(Cc3ccccc3)[nH]c2n1 | 9.8
2 | – | COc1cc(OC)cc(-c2nc3nc(N)nc(N)c3[nH]2)c1 | 9
3 | 29.8 | Nc1nc(N)c2nc(C3c4ccccc4-c4ccccc43)[nH]c2n1 | –
